Laboratory results taken from PMC6271975, “Structure-Activity Relationship Study of Sesquiterpene Lactones and Their Semi-Synthetic Amino Derivatives as Potential Antitrypanosomal Products” (Molecules, 2014).
Counter-ions that a name gives are not always drawn.

Tested on: T. b. rhodesiense STIB 900 bloodstream forms
Test: In vitro antitrypanosomal Alamar Blue assay
Type: cell-based, Trypanosoma brucei rhodesiense
Description: Evaluation of in vitro antiprotozoal activity against T. b. rhodesiense was done using the Alamar Blue assay to determine IC50s as previously described. Serial threefold dilution were prepared in 96-well micro titre plates, and 4000 T. b. rhodesiense STIB 900 bloodstream forms in 50 μL were added to each well except for the negative controls. Melarsoprol (Arsobal®, purity > 95%, Sanofi-Aventis, Meyrin, Switzerland) was used as reference drugs. […] The IC50 values were calculated from the sigmoidal growth inhibition curves using Softmax Pro software (Molecular Devices).

C=C(CO)C(=O)OC1CC(=C)C2CC(O)C(=C)C2C2OC(=O)C(CN(C)C)C12 (stereo not shown) [Compound 19, Cynaropicrin dimethylamine adduct hydrochloride]
SI (Selectivity Index): 10.4
